Assay results as given in ChEMBL document CHEMBL5038588 (J Med Chem, 2021).

Test system: Tyrosine-protein kinase ABL1 (Homo sapiens), P00519 [T315I]
Conditions: dose 10.0 nM, time 2.5 hrs

`Cc1ccc(C(=O)Nc2ccc3c(c2)C(F)(F)C[C@@H]3N2CCN(C)CC2)cc1C#Cc1cnc2cccnn12` showed an inhibition of 95%.
